Laboratory results from PMC13376213, “Systematic discovery of motif-based interactions of the auxiliary domains of USP family deubiquitinases” (Nature Communications, 2026).

Molecular target: T1, USP20 zf-UBP domain (Homo sapiens, UniProt Q9Y2K6)
T1 construct: USP20_UBP; Q9Y2K6; zf-UBP; 99; 6xHis-GST (N, cleaved yes); made in house; host or cells: Escherichia coli BL21-Gold (DE3)
Test: FP-monitored affinity measurements, USP20 zf-UBP
Type: binding
Details: USP20_UBP; direct FP titration (saturation) of the FITC-labelled peptide

Compound CC(C)C[C@H](NC(=O)[C@H](CC(=O)O)NC(=O)[C@H](CO)NC(=O)[C@H](CCCNC(=N)N)NC(=O)[C@H](CCC(N)=O)NC(=O)[C@H](CCC(N)=O)NC(=O)[C@H](CCCCN)NC(=S)Nc1ccc2c(c1)C(=O)OC21c2ccc(O)cc2Oc2cc(O)ccc21)C(=O)N[C@@H](CC(N)=O)C(=O)NCC(=O)N1CCC[C@H]1C(=O)N[C@H](C(=O)N[C@@H](CC(=O)O)C(N)=O)C(C)C [FITC_APBA2] has a Kd of 2910 nM.
